The conditions of data set [1]: in vivo.
The next data set deals with breast MCF-7 cells. The method, then:
(§1) The evaluation of the cytotoxic activities of the compounds (1) was carried out "in vitro" measuring, according to known methods, the inhibition of the colony formation, the cell viability (Trypan blu) and the incorporation of tritiated thymidine in tumoral and normal cells.

A further data set has as its system breast MDA cells. The method, then:
as §1

The next data set deals with lung (A549) cells. The method, then: as §1
Data set [2] has as its system melanoma (SKMEL-26) cells. The method, then:
as §1

The next data set deals with microcytoma (GCLI) cells. The method, then:
as §1

Data set [3] relates to non tumoral stabilized EBV+ cell line B95-8. The conditions noted are these: EBV+ B95-8 (marmoset). The method, then:
as §1

Data set [4] has as its system non tumoral stabilized EBV+ cell lines from patients affected by acute or chronic mononucleosis. Particulars: EBV+ lines from patients with acute or chronic mononucleosis. The method, then:
as §1

Another data set concerns ovary (SW626) cells. The method, then: as §1
The conditions of data set [5]: after a cumulative dose of 1200 mg/kg, 8th day after the end of the treatment.

As for “aquo-cis-diamino-chloro-(4-amino)benzoate-platinum(II) [Compound 1B]”, the LD50 entry in [1] is recorded as “higher than 240 mg/kg”.

On to “cis-diamino-chloro-(4-amino)benzoate-platinum(II) hydrochloride [Compound 1A]”, for which the water solubility came to 7000 µg/mL. Further, in the data set with breast MCF-7 cells, the cytotoxic activity result is given as “significant cytotoxic activity”. Besides, the cytotoxic activity entry in the data set on breast MDA cells is “significant cytotoxic activity”. Besides, in the data set on lung (A549) cells, the cytotoxic activity entry was “significant cytotoxic activity”. Further, the cytotoxic activity result in [2] was “significant cytotoxic activity”. In addition, in the data set on microcytoma (GCLI) cells, the cytotoxic activity entry is recorded as “significant cytotoxic activity”. In addition, the cytotoxic activity result in [3] is reported as “significant cytotoxic activity”. In addition, the cytotoxic activity entry in [4] was “significant cytotoxic activity”. The cytotoxic activity result with ovary (SW626) cells is on record as “significant cytotoxic activity”. Besides, the LD50 result in data set [1] is given as “higher than 1200 mg/kg”. The same substance displayed a BUN value in data set [5] of 36±8 mg/100 ml.

As to “cis-diamino-chloro-(4-amino)benzoate-platinum(II) mono methanol solvate [Compound 1C]”, the water solubility was > 3000 µg/mL. Besides, the LD50 entry in data set [1] is “higher than 240 mg/kg”.
